Protein sequences, listed by entry. Tags and fused reporters are not part of them. Residues count along the entry.
UniProt P53350, 367-603 limits assumed: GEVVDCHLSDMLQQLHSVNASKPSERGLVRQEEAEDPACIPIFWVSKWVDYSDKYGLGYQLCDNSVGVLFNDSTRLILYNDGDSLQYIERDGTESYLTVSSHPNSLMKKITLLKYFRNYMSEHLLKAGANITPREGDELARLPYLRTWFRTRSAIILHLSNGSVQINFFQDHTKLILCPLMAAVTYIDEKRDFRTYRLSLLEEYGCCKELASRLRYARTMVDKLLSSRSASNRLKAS

In patent publication US11597737B2, “Small molecule inhibitors selective for polo-like kinase proteins” (UNIVERSITY OF SOUTH CAROLINA, priority 2016, dated 2023):

Key:
[1] = target: PLK1 PBD (367-603) (Homo sapiens, UniProt P53350); experiment: Fluorescence polarization assay, PLK1 PBD; type: binding
[2] = test system: HeLa cervical cancer cells; experiment: Cell viability assay (MTT), HeLa; type: cell-based; conditions: read-out: HeLa, 72 hours

Row | fold loss in binding ([1]; relative to SCCP ID No: 5953) [fold] | fold increase in PLK1 binding ([1]; relative to SCCP ID No: 5961) | IC50 ([1]; read-out: PLK1 IC50, PLK1 PBD binding, fluorescence polarization) [µM] | IC50 [2] [µM] | SMILES
1 | 2 | more than 27 fold |  |  | CCCCCCCCc1ccc(CNc2cc(C)ccc2C(=O)O)cc1
2 |  |  | 3.99 | 17.9 | CCCCCCCCc1ccc(C(=O)Nc2cc(C)ccc2C(=O)O)cc1
